Results on two compounds are retold here after PubChem BioAssay AID651718 (The Scripps Research Institute Molecular Screening Center, 2012).

The entries are a selection whose mix differs from that of the whole data set. Active and inactive are the calls of the source. No stated cut-off is given here; in the data, active means inhibition above about 4.5%; inactive means the rest.

The assay concerns Methionine sulfoxide reductase A (Bos taurus). As to the kind of experiment: inhibition of methionine sulfoxide reductase A – biochemical, absorbance, bovine, HTS, primary screen (AID 651718).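 Further: 0% = vehicle wells with enzyme and 100% = reference inhibitor wells.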 As to conditions: purified bovine MsrA, absorbance read-out; at 15.5 µM; stronger effect = higher value.
The term inhibition denotes the change of the read-out against control, counted positive when it falls. For `CCC(=O)N(c1ccccc1)C1(COC)CCN(CCc2cccs2)CC1`, the inhibition is inactive: -1.18%.
To `CCC(=O)N(c1ccccc1)C1(COC)CCN(CCn2nnn(CC)c2=O)CC1` belongs inactive: 1%.
